Data: ChEMBL document CHEMBL4699657, “Fragment-to-Lead Medicinal Chemistry Publications in 2019” (J Med Chem, 2020)

Biological target: T1, Histone-lysine N-methyltransferase NSD3 (Homo sapiens, UniProt Q9BZ95)
T1 sequence (Q9BZ95 whole entry): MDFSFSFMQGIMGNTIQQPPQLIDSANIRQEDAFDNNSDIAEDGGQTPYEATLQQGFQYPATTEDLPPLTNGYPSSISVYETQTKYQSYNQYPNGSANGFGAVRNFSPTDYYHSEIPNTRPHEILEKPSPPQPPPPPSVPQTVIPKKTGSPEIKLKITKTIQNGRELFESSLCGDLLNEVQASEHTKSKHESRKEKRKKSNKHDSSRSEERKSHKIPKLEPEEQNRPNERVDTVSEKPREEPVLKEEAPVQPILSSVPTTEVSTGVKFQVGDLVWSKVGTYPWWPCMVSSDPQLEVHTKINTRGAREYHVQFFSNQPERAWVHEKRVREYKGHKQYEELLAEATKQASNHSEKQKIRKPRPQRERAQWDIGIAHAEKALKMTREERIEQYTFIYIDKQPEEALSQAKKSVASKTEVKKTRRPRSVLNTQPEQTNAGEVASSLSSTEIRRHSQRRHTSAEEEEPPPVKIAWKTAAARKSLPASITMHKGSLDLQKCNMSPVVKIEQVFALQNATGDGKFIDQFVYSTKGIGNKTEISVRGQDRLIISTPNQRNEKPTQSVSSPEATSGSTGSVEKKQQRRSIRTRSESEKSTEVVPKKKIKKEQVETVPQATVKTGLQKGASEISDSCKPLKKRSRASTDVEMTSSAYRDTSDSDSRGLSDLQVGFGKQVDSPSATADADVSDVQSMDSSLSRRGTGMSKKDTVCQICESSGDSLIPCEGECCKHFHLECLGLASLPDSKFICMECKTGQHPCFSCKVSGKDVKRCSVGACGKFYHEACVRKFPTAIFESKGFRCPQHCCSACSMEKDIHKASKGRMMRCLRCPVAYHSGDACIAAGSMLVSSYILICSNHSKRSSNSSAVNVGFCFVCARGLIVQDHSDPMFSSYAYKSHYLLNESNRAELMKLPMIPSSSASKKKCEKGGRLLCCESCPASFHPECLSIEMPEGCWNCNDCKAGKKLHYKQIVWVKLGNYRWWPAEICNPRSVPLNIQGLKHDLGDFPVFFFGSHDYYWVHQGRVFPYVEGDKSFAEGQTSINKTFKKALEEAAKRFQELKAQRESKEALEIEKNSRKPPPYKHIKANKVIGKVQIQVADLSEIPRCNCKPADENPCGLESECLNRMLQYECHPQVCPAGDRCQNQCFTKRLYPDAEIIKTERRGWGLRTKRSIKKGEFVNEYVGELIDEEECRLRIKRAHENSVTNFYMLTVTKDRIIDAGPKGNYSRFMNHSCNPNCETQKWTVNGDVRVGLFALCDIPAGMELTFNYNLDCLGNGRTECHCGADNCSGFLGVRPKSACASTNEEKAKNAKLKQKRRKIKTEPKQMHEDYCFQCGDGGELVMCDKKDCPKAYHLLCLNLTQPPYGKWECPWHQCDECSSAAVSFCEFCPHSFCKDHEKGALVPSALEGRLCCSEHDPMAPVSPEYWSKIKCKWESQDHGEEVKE
Experiment: Binding affinity to NSD3 PWWP1 domain (263 to 398 residues) (unknown origin) expressed in Escherichia coli BL21(DE3) by SPR method

- Kd: 170 nM
Structure (SMILES): Cc1cc(CN)cc(C)c1-c1ncn(C)c1-c1ccnc2cc(F)ccc12
